The chains behind the UniProt entries cited, without tags or fusion partners.
Guanine nucleotide-binding protein G(i) subunit alpha-3 (Rattus norvegicus), P08753, UniProt P08753, whole entry, looked up: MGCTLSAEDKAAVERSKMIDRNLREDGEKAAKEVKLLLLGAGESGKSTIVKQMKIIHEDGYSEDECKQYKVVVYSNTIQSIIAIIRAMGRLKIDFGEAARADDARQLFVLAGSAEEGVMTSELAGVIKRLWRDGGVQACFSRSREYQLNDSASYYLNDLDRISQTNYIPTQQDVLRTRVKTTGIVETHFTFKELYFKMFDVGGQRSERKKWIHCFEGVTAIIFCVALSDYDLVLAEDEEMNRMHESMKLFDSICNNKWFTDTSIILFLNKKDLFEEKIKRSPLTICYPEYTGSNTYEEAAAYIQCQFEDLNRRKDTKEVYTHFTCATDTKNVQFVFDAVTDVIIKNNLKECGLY

# HCMV NEC inh: inhibitors of HCMV UL50-UL53 nuclear egress complex interaction | HTRF UL50-UL53 interaction, normalized percent inhibition | inhibition, % (no concentration beside the values) | hit rate 0.15% among 190,000 | AID 1918969; in the data active = inhibition above about 27%, passing the limit was not always enough
# GIV Gai3 FP: inhibitors of GIV peptide binding to Galpha-i3, primary screen, biochemical, fluorescence polarization, FITC-GIV GBA peptide, rat Galphai3 | Guanine nucleotide-binding protein G(i) subunit alpha-3 (Rattus norvegicus), P08753 | 90 min; active compounds read low; scaled: aluminum fluoride 0%, vehicle 100% | 210,000 tested, 0.42% active | AID 1224905, 2016 | percent of control (FP), % (no concentration beside the values);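 active means replicate mean at 85% of control or lower, very high polarization wells dropped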;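 further: wells of about 15 µL received 100 nL stock; the first replicate is given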
# GIV Gai FP conf: confirmation of inhibitors of GIV binding to rat Galpha-i3 | shares compounds with GIV Gai3 FP | FITC-GIV peptide binding to Galphai3, fluorescence polarization; stronger effect = lower value | fluorescence polarization, mP at 100 µM | hit rate 38% among 580;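 active = inhibition score of 15 or more, meaning 100 minus mean polarization as percent of control over three replicates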
# GIV-Gai AS conf: confirmation of inhibitors of GIV binding to human Galpha-i3. hit rate 39% among 580. shares compounds with GIV Gai3 FP. AlphaScreen counts at 100 µM. AlphaScreen Galphai3-GIV binding, purified proteins, 90 min; stronger effect = lower value;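 active = inhibition score at or above a set limit, where the score is 100 minus the three-replicate mean percent of control signal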
# Starred values were filed as active, the others as inactive; x = no result. The sample as a whole holds a higher share of hits than the screen did.
# Results follow in this order: GIV-Gai AS conf | GIV Gai FP conf | GIV Gai3 FP | HCMV NEC inh
> O=C(O)CC(C(=O)O)N1C(=O)/C(=C\c2ccco2)SC1=S (stereo not given)
  3647* | 53* | 86 | -20
> Cc1nc(-c2ccc(N3CCN(C(=O)Cc4ccccc4Br)CC3)cc2)no1
  x | x | 105 | -42
> O=C1CCCC(O)=C1C=Nc1ccc(N=CC2=C(O)CCCC2=O)cc1
  x | x | 101 | -13
> O=C1CCCC(O)=C1C=NCCCn1ccnc1
  3828* | 66 | 87 | -19
> COc1cccc(N2CCN(C(=O)c3cc(-c4ccncc4)n(-c4ccc(F)cc4)n3)CC2)c1
  x | x | 107 | -9
> COc1ccc(/C=c2\sc3nc(-c4ccccc4)c(-c4ccccc4)n3c2=O)c(OC)c1OC
  45907 | 68 | 88 | x
> COc1ccc(/C=c2\sc3nc(-c4ccccc4)c(-c4ccccc4)n3c2=O)cc1OC
  x | x | 106 | x
> CCOC(=O)COc1ccc2c(C#N)c3ccccn3c2c1
  44204 | 64 | 43* | -25
> N#Cc1c2ccc(OCC(N)=O)cc2n2ccccc12
  x | x | 103 | -17
> O=C1CN(C(=O)COC(=O)c2ccccc2)c2ccccc2N1
  x | x | x | -18
> Cn1cc(/C=C/c2nc3ccccc3c(=O)n2-c2ccc([N+](=O)[O-])cc2)c2ccccc21
  x | x | 102 | -20
> Cc1ccc(-n2c(/C=C/c3c(C)n(C)c4ccccc34)nc3ccccc3c2=O)cc1
  36423 | 76 | 88 | -24
> CCN1C(=O)c2cccc3c(NC(=O)c4ccc(S(=O)(=O)N5CCCC5)cc4)ccc1c23
  47241 | 79 | 89 | x
> CCN1C(=O)c2cccc3c(NC(=S)NC(=O)c4ccc(S(=O)(=O)N5CCCC5)cc4)ccc1c23
  x | x | 107 | x
> Cc1cccc(Nc2nc3nonc3nc2NC(C)C)c1C
  x | x | 109 | -27

# 3 entries from above in a different format:
SMILES | GIV-Gai AS conf | GIV Gai FP conf | GIV Gai3 FP | HCMV NEC inh
CCN1C(=O)c2cccc3c(NC(=O)c4ccc(S(=O)(=O)N5CCCC5)cc4)ccc1c23 | 47241 | 79 | 89 | x
Cn1cc(/C=C/c2nc3ccccc3c(=O)n2-c2ccc([N+](=O)[O-])cc2)c2ccccc21 | x | x | 102 | -20
Cc1cccc(Nc2nc3nonc3nc2NC(C)C)c1C | x | x | 109 | -27

# Next part.
# Results follow in this order: GIV-Gai AS conf | GIV Gai FP conf | GIV Gai3 FP | HCMV NEC inh
> CC(NC(=O)CSc1nnnn1C)c1ccccc1 (stereo not given)
  x | x | x | -3
> Cn1nnnc1SCC(=O)NC1Cc2ccccc2C1
  47713 | 69 | 87 | -12
> CC(C)N(C(=O)CSc1ncnc2ccccc12)c1ccccc1
  x | x | x | 2
> O=C(O)C(c1ccccc1)N1C(=O)/C(=C/c2ccncc2)SC1=S (stereo not given)
  50305 | 76 | 80* | x
> CC(C)C(C(=O)O)N1C(=O)/C(=C/c2ccccc2)SC1=S (stereo not given)
  x | x | x | -72
> N#CCN(CC#N)C(=O)C1CC(=O)N(c2ccc(F)cc2)C1 (stereo not given)
  x | x | 105 | -14
> Cc1[nH]nc2oc(=O)c(Cc3c(F)cccc3Cl)c(C)c12
  x | x | 100 | -8
> Cc1[nH]nc2oc(=O)c(CC(=O)O)c(C)c12
  27884 | 59* | 84* | 65
> Cn1c(=NC(=O)c2nc3ccccc3s2)sc2cc(S(C)(=O)=O)ccc21
  x | x | 98 | -13
> COc1cccc(CNC(=O)C2CCCN(c3nnc(-n4c(C)ccc4C)s3)C2)c1 (stereo not given)
  x | x | 105 | -7
> COc1cccc(CNC(=O)C2CCCN2c2nnc(N3CCCCC3=O)s2)c1 (stereo not given)
  26734 | 79 | 87 | -12
> CC(=O)Nc1ccc(Br)c(OC(F)F)c1
  x | x | x | 1
> CC(C)Cn1ccn(-c2cccc(Cl)c2)c(=O)c1=O
  x | x | 118 | -24
> CC(C)(C)c1ccc(OCCOc2ccccc2C=C2C(=O)NC(=S)NC2=O)cc1
  x | x | 95 | -20
> O=C1NC(=S)NC(=O)C1=Cc1cccc(O)c1Cl
  4117* | 69 | 77* | -11
> O=C(CSc1nnc(CNC(=O)c2ccco2)o1)NCc1ccc2c(c1)OCO2
  x | x | 94 | -21
> Cc1ccc(-c2nc3n(CC(=O)NC4CCCC4)c4c(c(=O)n3n2)CCC4)cc1
  x | x | 112 | 3
> COc1ccc2nc(NS(=O)(=O)c3ccc(C)cc3)c(Nc3cc(Cl)ccc3OC)nc2c1
  x | x | 230 | -10
> COc1ccc(Nc2nc3ccccc3nc2NS(=O)(=O)c2ccc(C)cc2)c(OC)c1
  33344 | 81 | 39* | -21
> Cc1ccc(/C=C2\CN(Cc3ccccc3)C/C(=C\c3ccc(C)o3)C2=O)o1
  x | x | x | -7
> O=C1/C(=C/c2cccnc2)CC/C1=C\c1cccnc1
  x | x | 90 | x
> O=C1/C(=C/c2cccnc2)CCC/C1=C\c1cccnc1
  32981 | 53* | 49* | 19
> CCOC(=O)N1CCc2c(sc(NCc3cccc(F)c3)c2C(=O)Nc2ccc(OCC)cc2)C1
  x | x | 107 | x
> Nc1ccc2c(c1)C(=O)N(CCO)C2=O
  44198 | 63 | 90 | -38
> Nc1ccc2c(c1)C(=O)N(CCCCN1C(=O)c3ccc(N)cc3C1=O)C2=O
  x | x | 109 | -27
> C/C(=N/NC(=O)C(F)(F)F)c1cccs1
  x | x | 104 | -7
> C/C(=N\NC(=O)C(F)(F)F)c1ccccc1O
  56622 | 72 | 94 | 3

# High-throughput results as filed in PubChem.
